Assay results from patent US20240316047A1, “INHIBITORS OF RNA HELICASE DHX9 AND USES THEREOF” (ACCENT THERAPEUTICS, INC., priority 2022, published 2024).

Test system: circBRIP1 in HCT116 cells
Assay: DHX9 circBRIP1 cellular target engagement TaqMan multiplex assay
Assay type: cell-based
Conditions: read-out: DHX9 Cellular Target Engagement

CC(C)N1CC(Oc2cnc(-c3cc(C(=O)Nc4cc(Cl)cc(NS(C)(=O)=O)c4)cn3CC(F)(F)F)nc2)C1
EC50: 0.121 µM
